Columns and labels:
[1] = target: T1, human EPN1 expressed by human cell lines (human, UniProt Q9Y6I3 1-576); assay: flow cytometry, ACHN cells (human tumor line)
T1 construct: Endogenous EPN1 of human tumour and normal cell lines, stained on live cells or on fixed and permeabilised cells, or immunoprecipitated; The cell lines were not engineered to express it; also called surface EPN1; huEPN1
T1 sequence: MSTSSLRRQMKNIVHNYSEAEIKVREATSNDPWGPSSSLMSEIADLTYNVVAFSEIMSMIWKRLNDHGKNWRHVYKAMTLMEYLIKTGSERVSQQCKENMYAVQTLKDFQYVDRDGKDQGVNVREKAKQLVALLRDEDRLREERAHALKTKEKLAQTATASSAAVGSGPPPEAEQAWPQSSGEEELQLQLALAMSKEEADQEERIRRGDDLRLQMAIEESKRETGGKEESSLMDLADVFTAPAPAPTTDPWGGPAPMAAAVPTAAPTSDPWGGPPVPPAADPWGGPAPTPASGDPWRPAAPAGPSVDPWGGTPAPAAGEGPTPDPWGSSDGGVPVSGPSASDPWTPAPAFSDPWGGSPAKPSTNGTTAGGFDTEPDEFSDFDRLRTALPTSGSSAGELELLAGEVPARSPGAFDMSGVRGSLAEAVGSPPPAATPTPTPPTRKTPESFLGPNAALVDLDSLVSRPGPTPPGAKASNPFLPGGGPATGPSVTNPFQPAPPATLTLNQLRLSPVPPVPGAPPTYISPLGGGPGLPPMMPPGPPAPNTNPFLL

[2] = target: T2, recombinant EPN1 (Origene, cat #TP307099) (human, UniProt Q9Y6I3 1-576); assay: SPR, IMM20059 captured at about 50 RU on C1/Protein A, EPN1 in solution, 25° C.
T2 construct: Bought protein; also called Epsin-1; Epsin 1
T2 sequence: T1 sequence
Procedure: Binding of EPN1 to IMM20059 was evaluated when antibody was captured, in standard running buffer, onto the surface of a C1/Protein A sensor chip at a density of approximately 50 RU. The combination of the carboxymethylated, matrix-free surface of the C1 chip and the low density of IMM20059 is predicted to limit avid binding.

[3] = target: T1, human EPN1 expressed by human cell lines; assay: flow cytometry, MRC5 cells (human normal line)
[4] = target: T1, human EPN1 expressed by human cell lines; assay: flow cytometry, HT1197 cells (human tumor line)
[5] = target: T1, human EPN1 expressed by human cell lines; assay: flow cytometry, H460 cells (human tumor line)
[6] = target: T2, recombinant EPN1 (Origene, cat …); assay: SPR, IMM20059 captured at 2600 RU on CM5/Protein A, EPN1 in solution, 25° C.
Procedure: IMM20059 was captured at four different surface densities (500, 1000, 2600, and 2800 RU) on a CM5/Protein A sensor chip using 10 mM HEPES, pH 7.4, 150 mM NaCl, 0.005% Tween-20, 0.2 mg/mL BSA as a running buffer. EPN1 (Origene Cat #TP307099) or EPN2 (Origene Cat #TP310899) were diluted in running buffer to both 200 nM and 20 nM and analyzed for the ability to bind to the immobilized IMM20059 at 25° C. […] However, as detailed in Table 4, the observed off-rates for binding to EPN1 were dependent upon IMM20059 surface density, with the off-rate on the 500 RU surface being 2.4-times faster than the off-rate measured on the 2800 RU density surface.

[7] = target: T1, human EPN1 expressed by human cell lines; assay: flow cytometry, HeLa cells (human tumor line)
[8] = target: T3, mouse EPN1 expressed by mouse cell lines (mouse, UniProt Q80VP1 1-575); assay: flow cytometry, B16F0 cells (mouse tumor line)
T3 construct: whole, on cells; also called murine EPN1
T3 sequence (looked up): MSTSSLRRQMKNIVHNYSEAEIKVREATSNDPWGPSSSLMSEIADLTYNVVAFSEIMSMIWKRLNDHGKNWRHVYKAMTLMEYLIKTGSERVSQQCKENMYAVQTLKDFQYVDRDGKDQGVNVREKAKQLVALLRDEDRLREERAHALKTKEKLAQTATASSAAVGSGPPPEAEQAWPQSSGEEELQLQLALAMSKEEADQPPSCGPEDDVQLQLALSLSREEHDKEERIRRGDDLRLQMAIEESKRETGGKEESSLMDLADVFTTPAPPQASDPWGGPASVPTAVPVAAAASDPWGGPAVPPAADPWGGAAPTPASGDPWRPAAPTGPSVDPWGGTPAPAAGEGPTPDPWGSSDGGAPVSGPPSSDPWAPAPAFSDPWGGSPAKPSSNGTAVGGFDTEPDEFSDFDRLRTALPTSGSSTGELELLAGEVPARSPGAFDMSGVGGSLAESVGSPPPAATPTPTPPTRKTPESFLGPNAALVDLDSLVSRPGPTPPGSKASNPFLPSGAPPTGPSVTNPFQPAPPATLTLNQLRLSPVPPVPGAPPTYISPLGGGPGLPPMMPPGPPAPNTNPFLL

[9] = target: T1, human EPN1 expressed by human cell lines; assay: flow cytometry on intact A549 cells, fluorophore-labelled anti-human secondary
Text: Binding of IMM20059 to intact cells was detected with fluorophore-labelled anti-human secondary antibodies.
Full-length IgG1 antibody, containing the PR045-2H11 Ab VH and VL domains, was expressed recombinantly by transient transfection into mammalian cell lines, such as Chinese Hampster Ovary (CHO) and human embryonic kidney (HEK), or derivatives of those cell lines, using standard conditions. The recombinant antibody, referred to as IMM20059, was purified from conditioned media by affinity chromatography, buffer exchanged into PBS and analyzed for activity by flow cytometry. […] IMM20059 binds, to varying degrees, to the surfaces of cells included in a panel of human cancer cells, immortalized normal human cell lines, and mouse tumor lines (Table 1).

[10] = target: T1, human EPN1 expressed by human cell lines; assay: flow cytometry, FADU cells (human tumor line)

MFI (fold mean fluorescence index above isotype control) [1]: 7 fold
Kd [2]: 10.1 nM
koff [2]: 0.00303 s⁻¹
kon [2]: 299000 M⁻¹ s⁻¹
MFI (fold mean fluorescence index above isotype control) [3]: 9 fold
MFI (fold mean fluorescence index above isotype control) [4]: 3 fold
MFI (fold mean fluorescence index above isotype control) [5]: 30 fold
Kd [6]: 1.05 nM
koff [6]: 0.000267 s⁻¹
kon [6]: 254000 M⁻¹ s⁻¹
MFI (fold mean fluorescence index above isotype control) [7]: 3 fold
MFI (fold mean fluorescence index above isotype control) [8]: 5 fold
EC50 [9]: 0.86 µg/mL
MFI (fold mean fluorescence index above isotype control) [10]: 5 fold
B1: IMM20059 (antibody, human IgG1, kappa, V domains shown)
VH: EVQLVESGGGLVQPGGSLRLSCAASGFTFSIHSLNWVRQAPGKGLEWVSYISSNSTTIYYADSVKGRFTISRDNAKDSLYLQMNSLRDEDTAVYYCARDYYCTGGTCFFLPDLWGRGALVTVSS
VL: EIVLTQSPATLSLSPGERATLSCRASQNISNFLAWYQHKPGQAPRLLIYDASIRATGIPARFSGSGSGTDFSLTISSLEPEDFAVYFCQQRYNWLTFGGGTKVEIKR

— patent US20220002435A1 (IMMUNOME, published 2022)
